The values below come from PubChem BioAssay (Tox21).

The chains behind the UniProt entries cited, without tags or fusion partners.
UniProt O75469, whole entry: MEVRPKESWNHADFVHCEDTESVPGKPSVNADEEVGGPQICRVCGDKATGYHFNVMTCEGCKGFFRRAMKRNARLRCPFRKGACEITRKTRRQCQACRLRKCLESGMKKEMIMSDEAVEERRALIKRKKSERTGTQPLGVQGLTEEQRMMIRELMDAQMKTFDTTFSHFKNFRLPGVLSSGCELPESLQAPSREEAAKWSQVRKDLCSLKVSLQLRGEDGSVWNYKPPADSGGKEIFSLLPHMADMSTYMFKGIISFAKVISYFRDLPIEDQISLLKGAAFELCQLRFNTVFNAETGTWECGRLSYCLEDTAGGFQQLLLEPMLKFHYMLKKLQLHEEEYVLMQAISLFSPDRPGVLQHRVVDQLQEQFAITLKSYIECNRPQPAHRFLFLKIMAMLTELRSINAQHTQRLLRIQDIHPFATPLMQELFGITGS

This is a selection; strong and weak results do not stand in their true shares. Inconclusive results are not listed. Activity calls are given as the source filed them. The call rests on the fitted dose curve; in most records, active means well fitted curve in the direction sought with a large enough effect in the repeat runs; inconclusive means weak or mixed curves; inactive means no such curve, though single readings can be large; an effect the other way counts as inactive or inconclusive.

Assay [1] can be described thus: qHTS assay to identify aromatase inhibitors - cell viability counter screen (AID 743084).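 Further: cells stimulated with testosterone during compound exposure; on the % scale 0 is the no-effect control and ±100 the full control effect; nearly all actives have a fitted effect of over 55% in size.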
For assay [2], the target named is Nuclear receptor subfamily 1 group I member 2 (Homo sapiens) (UniProt O75469). The assay can be described thus: Human pregnane X receptor (PXR) small molecule agonists, qHTS assay (AID 1346982). Further: potency means the concentration at half of the fitted maximal effect; nearly all actives have a fitted effect of over 35% in size. The following applies: PXR-Luc HepG2, CYP3A4 luciferase reporter, 24 h. An outline of the steps:
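PXR-Luc HepG2 reporter cells (CYP3A4-driven luciferase) in 5% charcoal-stripped FBS medium, plated 5 h before compound addition, then treated 24 h at 37C. Luciferase read by ONE-Glo luminescence after 30 min at room temperature.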
Background: In qHTS, concentration-response curves come from the screen itself.

A short description of assay [3]: qHTS assay to test for compound auto fluorescence at 535 nm (green) in HepG2 cells (AID 720675). Further: on the % scale 0 is the no-effect control and ±100 the full control effect. The following applies: green autofluorescence 485/535 nm, 1 h; at 91.3 µM (top of the series).
The nature of assay [4]: A CellTox Green Cytotoxicity Assay to monitor cytotoxicity in HepG2 cells - 32 hour (AID 1224883). Further: on the % scale 0 is the no-effect control and ±100 the full control effect; nearly all actives have a fitted effect of over 50% in size. The following applies: CellTox Green fluorescence; at 76.8 µM (top of the series). In outline:
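HepG2 cells, 600/well, preincubated 5 h with CellTox Green dye, then exposed to Tox21 compounds in DMSO at 37 C for up to 40 h. Dead-cell DNA fluorescence read at the indicated time point.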

Assay [5] can be described thus: Caspase-3/7 induction in CHO-K1 cells by small molecules, qHTS cell viability counter screen (AID 1346979). Further: potency means the concentration at half of the fitted maximal effect; nearly all actives have a fitted effect of over 35% in size. The following applies: CellTiter-Fluor fluorescence, 17 h. In outline: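 Cells (CHO-K1, wild type) are plated at 1,500 per well and incubated 5hr. Test compounds in DMSO are then pinned in, followed by 16hr at 37C and 5% CO2. Viability is read by CellTiter-Fluor fluorescence after 1hr.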

In the case of `CCC(=O)N(c1ccccc1)C1(COC)CCN(CCn2nnn(CC)c2=O)CC1`, in assay [1], the Potency entry was “inactive”. The Potency in assay [2] is active: 26.8 µM.
Turning to `O=[N+]([O-])C(Cl)(Cl)Cl`, in assay [3], the fluorescence, % of fluorescein control was inactive: -0.112%. Moreover, the cytotoxicity increase in assay [4] was inactive: -17.8%. Also, the Potency in assay [5] is active: 15.3 µM.
